The values below come from PMC3560935 (Anesthesiology, 2011).

The test system of one data set is CYP3A4/5. Conditions: humans; cited from earlier work.
Data set [1] deals with Swiss-Webster mice. Conditions: mouse, in vivo.
For data set [2], the system named is Swiss-Webster mice. Conditions: mouse, in vivo. This is another data set of the same source.

As for Buprenorphine, the “share of N-dealkylation to norbuprenorphine catalyzed by CYP3A4/5” value in the data set on CYP3A4/5 was 80–90%. Moreover, the “effect on minute ventilation (in words)” value in the data set on Swiss-Webster mice [1] (Swiss-Webster) is reported as “Neither buprenorphine nor B3G affected”. For the same substance, in the data set with Swiss-Webster mice [1], the “effect on respiratory rate (in words)” value was “did not have a significant effect” and the “effect on tidal volume (in words)” value is recorded as “neither compound had an effect”. Besides, in the data set on Swiss-Webster mice [2], the “total locomotor activity compared to control / sedation (in words)” value is reported as “did not cause a decrease”.
